This is an account of results in BindingDB's records for doi:10.1007/bf02245606 (Janssen Research Foundation, 1996).

Amino acid sequences for entries named in this document (tags omitted). A change or cut given only in a name is not applied to a line headed by its entry.
UniProt P18089, whole entry: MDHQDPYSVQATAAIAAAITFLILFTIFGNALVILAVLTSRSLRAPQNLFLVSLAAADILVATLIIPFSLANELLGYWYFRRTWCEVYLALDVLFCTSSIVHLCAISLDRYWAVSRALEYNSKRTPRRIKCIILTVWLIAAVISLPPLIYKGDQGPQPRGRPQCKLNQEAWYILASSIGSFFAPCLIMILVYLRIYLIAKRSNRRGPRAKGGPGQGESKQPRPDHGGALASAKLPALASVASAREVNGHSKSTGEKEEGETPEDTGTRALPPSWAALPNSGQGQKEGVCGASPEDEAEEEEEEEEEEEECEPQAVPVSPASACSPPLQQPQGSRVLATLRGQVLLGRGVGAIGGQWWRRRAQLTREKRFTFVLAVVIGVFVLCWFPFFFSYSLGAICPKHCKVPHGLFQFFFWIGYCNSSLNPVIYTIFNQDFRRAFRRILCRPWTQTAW
UniProt P07550, whole entry: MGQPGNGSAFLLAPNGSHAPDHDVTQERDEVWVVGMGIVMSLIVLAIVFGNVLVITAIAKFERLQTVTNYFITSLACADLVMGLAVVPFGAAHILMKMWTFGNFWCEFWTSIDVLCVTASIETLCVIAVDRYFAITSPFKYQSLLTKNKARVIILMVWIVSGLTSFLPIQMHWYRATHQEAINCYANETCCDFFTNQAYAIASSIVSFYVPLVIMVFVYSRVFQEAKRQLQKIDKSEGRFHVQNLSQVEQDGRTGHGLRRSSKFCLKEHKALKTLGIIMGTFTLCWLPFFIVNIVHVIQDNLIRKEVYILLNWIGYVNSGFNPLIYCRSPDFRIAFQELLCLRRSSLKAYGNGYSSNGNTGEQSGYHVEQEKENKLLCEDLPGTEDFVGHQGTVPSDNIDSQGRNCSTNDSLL
UniProt P35367, whole entry: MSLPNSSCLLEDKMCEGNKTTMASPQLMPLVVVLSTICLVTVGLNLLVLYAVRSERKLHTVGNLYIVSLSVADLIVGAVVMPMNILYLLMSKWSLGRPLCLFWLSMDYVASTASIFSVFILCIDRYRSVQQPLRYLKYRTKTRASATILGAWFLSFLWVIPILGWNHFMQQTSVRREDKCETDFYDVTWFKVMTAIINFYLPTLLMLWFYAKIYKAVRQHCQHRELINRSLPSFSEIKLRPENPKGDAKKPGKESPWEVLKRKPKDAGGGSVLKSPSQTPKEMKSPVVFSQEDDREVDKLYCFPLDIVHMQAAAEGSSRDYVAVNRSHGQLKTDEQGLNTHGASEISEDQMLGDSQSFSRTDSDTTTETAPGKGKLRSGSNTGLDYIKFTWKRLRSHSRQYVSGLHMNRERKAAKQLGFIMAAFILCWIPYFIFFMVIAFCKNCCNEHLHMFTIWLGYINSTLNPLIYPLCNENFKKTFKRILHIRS
UniProt P18825, whole entry: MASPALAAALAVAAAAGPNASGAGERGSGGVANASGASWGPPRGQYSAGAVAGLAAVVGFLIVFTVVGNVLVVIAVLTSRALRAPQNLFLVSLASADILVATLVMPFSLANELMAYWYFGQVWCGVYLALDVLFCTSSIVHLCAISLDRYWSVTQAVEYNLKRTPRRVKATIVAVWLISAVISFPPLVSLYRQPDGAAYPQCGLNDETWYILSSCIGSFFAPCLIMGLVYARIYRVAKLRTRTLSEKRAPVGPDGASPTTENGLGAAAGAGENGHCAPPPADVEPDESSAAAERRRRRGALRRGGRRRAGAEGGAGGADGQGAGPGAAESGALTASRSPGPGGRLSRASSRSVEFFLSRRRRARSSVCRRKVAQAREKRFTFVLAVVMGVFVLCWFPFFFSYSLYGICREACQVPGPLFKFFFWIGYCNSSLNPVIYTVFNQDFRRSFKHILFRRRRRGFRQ
UniProt P14842, whole entry: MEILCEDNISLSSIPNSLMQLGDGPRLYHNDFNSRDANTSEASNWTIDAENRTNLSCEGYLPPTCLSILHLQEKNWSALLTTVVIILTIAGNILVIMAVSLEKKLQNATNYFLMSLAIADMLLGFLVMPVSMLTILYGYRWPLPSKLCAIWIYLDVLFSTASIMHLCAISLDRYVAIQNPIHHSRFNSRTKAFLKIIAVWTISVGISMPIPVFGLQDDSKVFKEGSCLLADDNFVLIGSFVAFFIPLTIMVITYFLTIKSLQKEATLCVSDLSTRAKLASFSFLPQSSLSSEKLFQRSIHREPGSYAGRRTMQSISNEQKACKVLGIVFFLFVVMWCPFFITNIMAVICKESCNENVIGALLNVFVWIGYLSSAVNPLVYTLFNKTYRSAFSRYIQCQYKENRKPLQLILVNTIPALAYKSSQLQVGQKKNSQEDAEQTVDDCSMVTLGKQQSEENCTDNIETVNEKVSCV
UniProt P28221: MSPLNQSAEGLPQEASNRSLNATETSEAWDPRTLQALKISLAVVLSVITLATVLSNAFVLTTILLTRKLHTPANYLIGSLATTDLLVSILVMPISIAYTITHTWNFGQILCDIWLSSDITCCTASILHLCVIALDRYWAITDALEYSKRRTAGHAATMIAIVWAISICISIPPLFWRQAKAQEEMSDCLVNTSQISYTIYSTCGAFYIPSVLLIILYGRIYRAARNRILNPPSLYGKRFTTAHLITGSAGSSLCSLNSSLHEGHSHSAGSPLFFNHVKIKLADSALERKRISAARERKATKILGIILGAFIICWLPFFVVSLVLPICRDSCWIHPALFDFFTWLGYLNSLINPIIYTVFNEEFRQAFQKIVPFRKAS
UniProt P28222, whole entry: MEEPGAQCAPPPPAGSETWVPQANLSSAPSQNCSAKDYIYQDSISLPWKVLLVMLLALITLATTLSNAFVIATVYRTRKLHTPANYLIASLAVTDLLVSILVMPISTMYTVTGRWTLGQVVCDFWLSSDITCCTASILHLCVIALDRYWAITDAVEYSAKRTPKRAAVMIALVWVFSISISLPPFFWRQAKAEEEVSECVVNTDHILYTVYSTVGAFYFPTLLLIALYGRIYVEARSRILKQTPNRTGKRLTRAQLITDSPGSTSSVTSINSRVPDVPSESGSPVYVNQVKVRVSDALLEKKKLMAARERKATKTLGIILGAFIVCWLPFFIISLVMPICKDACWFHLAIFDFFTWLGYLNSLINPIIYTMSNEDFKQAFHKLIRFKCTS
UniProt P28566: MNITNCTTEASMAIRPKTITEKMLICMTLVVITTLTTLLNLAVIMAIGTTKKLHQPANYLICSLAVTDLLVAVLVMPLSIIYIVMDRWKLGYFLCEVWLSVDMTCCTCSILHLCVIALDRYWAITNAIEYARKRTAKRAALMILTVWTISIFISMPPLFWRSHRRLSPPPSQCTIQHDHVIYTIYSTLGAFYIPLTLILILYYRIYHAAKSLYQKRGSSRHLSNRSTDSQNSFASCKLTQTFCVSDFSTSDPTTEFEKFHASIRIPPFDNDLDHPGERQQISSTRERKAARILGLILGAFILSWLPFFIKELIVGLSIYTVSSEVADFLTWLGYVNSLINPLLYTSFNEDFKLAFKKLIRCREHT
UniProt P31645, whole entry: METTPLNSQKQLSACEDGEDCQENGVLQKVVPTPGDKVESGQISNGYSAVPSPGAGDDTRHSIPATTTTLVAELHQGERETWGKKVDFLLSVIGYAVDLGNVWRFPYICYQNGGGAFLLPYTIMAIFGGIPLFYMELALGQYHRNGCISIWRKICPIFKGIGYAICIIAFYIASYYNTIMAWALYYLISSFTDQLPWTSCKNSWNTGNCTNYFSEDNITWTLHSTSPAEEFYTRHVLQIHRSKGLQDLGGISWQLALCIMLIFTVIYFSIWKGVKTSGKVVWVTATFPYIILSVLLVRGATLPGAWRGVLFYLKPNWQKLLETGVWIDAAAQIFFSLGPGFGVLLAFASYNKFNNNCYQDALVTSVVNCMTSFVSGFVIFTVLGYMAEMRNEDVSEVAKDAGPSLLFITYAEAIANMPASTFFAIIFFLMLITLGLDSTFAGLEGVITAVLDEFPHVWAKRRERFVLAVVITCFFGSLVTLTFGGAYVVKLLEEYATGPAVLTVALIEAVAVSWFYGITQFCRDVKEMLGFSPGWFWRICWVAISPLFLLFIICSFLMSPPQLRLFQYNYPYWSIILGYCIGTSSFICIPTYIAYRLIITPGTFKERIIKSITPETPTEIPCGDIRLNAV
UniProt P33535, whole entry: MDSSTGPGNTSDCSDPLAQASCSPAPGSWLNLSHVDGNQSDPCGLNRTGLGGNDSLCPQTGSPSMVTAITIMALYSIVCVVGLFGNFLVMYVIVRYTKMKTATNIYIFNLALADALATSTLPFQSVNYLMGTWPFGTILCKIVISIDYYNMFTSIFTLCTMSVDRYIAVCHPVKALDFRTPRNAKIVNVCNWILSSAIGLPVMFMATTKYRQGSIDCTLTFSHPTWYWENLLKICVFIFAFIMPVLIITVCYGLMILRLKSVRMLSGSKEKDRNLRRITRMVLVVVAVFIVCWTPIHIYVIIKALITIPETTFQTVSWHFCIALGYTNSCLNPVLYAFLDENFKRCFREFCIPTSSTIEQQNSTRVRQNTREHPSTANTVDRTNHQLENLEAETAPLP
UniProt P23977, whole entry: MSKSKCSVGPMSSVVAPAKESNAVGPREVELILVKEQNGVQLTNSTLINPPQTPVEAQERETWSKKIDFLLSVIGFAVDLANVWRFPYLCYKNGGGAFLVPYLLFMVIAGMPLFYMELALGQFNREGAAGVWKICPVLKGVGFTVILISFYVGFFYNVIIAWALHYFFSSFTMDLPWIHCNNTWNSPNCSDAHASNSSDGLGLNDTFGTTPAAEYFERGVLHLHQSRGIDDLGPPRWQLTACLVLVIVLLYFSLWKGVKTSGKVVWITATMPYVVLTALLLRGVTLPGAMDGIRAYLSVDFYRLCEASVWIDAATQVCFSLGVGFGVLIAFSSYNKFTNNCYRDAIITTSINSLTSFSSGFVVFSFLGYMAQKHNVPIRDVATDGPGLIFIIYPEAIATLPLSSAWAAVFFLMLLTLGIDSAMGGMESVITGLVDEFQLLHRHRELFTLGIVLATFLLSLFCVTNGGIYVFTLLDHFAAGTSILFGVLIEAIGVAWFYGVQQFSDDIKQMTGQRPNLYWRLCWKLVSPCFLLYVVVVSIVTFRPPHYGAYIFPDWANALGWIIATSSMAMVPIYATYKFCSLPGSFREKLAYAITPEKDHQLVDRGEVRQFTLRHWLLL

pKi: −log10 of the molar value. Structures can show the parent of a compound that is named as a salt.

Test [1] deals with Alpha-2B adrenergic receptor (Homo sapiens, UniProt P18089).
In test [2] the target is Beta-2 adrenergic receptor (Homo sapiens, UniProt P07550).
The target in the next test is Histamine H1 receptor (Homo sapiens, UniProt P35367).
The target of test [3] is Alpha-2C adrenergic receptor (Homo sapiens, UniProt P18825).
Test [4] addresses 5-hydroxytryptamine receptor 2A (Rattus norvegicus, UniProt P14842).
Test [5] addresses 5-hydroxytryptamine receptor 1D (Homo sapiens, UniProt P28221).
Test [6] deals with T1, 5-hydroxytryptamine receptor 1F (Homo sapiens, UniProt P30939).
T1 sequence (P30939 whole entry): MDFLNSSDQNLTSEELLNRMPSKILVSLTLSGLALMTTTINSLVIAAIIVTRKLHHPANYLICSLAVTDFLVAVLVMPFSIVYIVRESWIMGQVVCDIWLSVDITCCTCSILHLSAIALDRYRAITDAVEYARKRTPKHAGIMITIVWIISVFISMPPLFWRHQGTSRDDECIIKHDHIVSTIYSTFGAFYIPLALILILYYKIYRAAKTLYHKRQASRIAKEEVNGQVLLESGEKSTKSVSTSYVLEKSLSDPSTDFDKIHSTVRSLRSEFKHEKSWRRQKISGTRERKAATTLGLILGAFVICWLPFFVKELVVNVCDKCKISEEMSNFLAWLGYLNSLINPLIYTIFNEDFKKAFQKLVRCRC

Test [7] addresses 5-hydroxytryptamine receptor 1B (Homo sapiens, UniProt P28222).
The target in test [8] is 5-hydroxytryptamine receptor 1E (Homo sapiens, UniProt P28566).
In test [9] the target is Sodium-dependent serotonin transporter (Homo sapiens, UniProt P31645).
Another test deals with Mu-type opioid receptor (Rattus norvegicus, UniProt P33535).
Test [10] deals with Sodium-dependent dopamine transporter (Rattus norvegicus, UniProt P23977).

As usually defined, the pKi is −log10 of the Ki, conventionally taken in molar units. Higher therefore signals a small Ki. As for `O=C1NCCN1CCN1CCC(c2cn(-c3ccc(F)cc3)c3ccc(Cl)cc23)CC1` [1-[2-[4-[5-chloro-1-(4-fluorophenyl)-indol-3-yl]-1-piperidyl]ethyl]imidazolidin-2-one], the pKi in test [1] is 6.35; in [2], 5.30.

`CN(C)CCOC1=Cc2ccccc2Sc2ccc(Cl)cc21` [2-Chloro-11-(2-(dimethylamino)ethoxy)dibenzo(b,f)thiepin]: the negative logarithm of the Ki (pKi) was 9.21 on Histamine H1 receptor, 6.82 in [3] and 9.04 in test [4].

Take `OCCOCCN1CCN(C2=Nc3ccccc3Sc3ccccc32)CC1` [2-[2-(4-dibenzo[b,f][1,4]thiazepin-11-ylpiperazin-1-yl)ethoxy]ethanol]: the pKi in test [5] is 5.30; in test [6] it was 5.65.

As for `O=C(CCCN1CCC(O)(c2ccc(Cl)cc2)CC1)c1ccc(F)cc1` [4-[4-(4-Chloro-phenyl)-4-hydroxy-piperidin-1-yl]-1-(4-fluoro-phenyl)-butan-1-one;propionate(HCl)], the figures for the pKi in test [7] and in test [8] were 6.57 and 5.30, respectively.

Regarding `CN1CCN(C2=c3ccccc3=Nc3ccc(Cl)cc3N2)CC1` [6-chloro-10-(4-methylpiperazin-1-yl)-2,9-diazatricyclo[9.4.0.0^{3,8}]pentadeca-1,3(8),4,6,10,12,14-heptaene], the values for the pKi (in test [9]; in test [1]; on Histamine H1 receptor) were less than 6.00, 7.66 and 9.64, respectively.

Consider `O=C1NCN(c2ccccc2)C12CCN(CC1COc3ccccc3O1)CC2` (stereo unspecified) [8-(2,3-Dihydro-benzo[1,4]dioxin-2-ylmethyl)-1-phenyl-1,3,8-triaza-spiro[4.5]decan-4-one], for which the pKi in test [1] was 8.74.

On to `Cc1cc2c(s1)=Nc1ccccc1NC=2N1CCN(C)CC1` [CAS_132539-06-1], for which the pKi in [4] was 8.72.

Take `CN1CC2c3ccccc3Oc3ccc(Cl)cc3C2C1` (stereo unspecified) [NSC_163091]: the pKi (at Mu-type opioid receptor; in test [10]) was less than 6.00 throughout.
